For the assay, the target named is dCREB2-a protein (Drosophila). In words: cell-based or functional assay.

Turning to “mouse PKA catalytic subunit (from UniProt P05132 2-351) (enzyme)”, the activation of the D(-71) CAT reporter (CAT/βgal ratio, F9 cells) stood at 5.4 fold.

For the origin of these results see patent US6890516.
